# pIC50: −log10 of the molar value.
# Amino acid sequences for entries named in this document (tags omitted). A change or cut given only in a name is not applied to a line headed by its entry.
# UniProt P42338: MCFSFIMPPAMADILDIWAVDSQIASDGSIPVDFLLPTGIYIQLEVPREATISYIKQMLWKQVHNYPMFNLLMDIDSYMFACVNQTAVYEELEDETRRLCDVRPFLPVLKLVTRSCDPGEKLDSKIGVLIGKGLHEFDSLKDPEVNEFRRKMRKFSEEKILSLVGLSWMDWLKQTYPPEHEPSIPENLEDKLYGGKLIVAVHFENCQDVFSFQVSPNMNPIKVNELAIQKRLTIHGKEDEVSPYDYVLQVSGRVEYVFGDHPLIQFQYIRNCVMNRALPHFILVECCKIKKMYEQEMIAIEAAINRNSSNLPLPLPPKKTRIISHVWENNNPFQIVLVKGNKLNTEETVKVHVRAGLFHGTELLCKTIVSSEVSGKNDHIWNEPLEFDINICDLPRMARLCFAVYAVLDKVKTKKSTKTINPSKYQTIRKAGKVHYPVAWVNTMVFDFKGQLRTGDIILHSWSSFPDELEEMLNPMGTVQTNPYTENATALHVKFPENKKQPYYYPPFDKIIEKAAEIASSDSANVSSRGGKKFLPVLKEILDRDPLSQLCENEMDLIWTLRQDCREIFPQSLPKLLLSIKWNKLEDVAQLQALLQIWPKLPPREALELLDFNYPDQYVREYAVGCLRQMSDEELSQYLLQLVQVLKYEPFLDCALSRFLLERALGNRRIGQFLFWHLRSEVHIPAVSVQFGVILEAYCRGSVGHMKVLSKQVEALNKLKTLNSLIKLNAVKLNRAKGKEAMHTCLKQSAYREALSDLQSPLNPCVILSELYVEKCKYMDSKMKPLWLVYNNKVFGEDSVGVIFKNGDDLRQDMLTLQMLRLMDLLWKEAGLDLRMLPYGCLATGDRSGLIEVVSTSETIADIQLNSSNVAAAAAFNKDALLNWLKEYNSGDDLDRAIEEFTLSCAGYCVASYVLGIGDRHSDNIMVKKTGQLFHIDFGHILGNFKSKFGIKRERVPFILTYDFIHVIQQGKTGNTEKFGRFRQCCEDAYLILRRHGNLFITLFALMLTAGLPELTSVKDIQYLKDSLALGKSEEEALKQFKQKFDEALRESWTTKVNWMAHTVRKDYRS
# Molecular target: Phosphatidylinositol 4,5-bisphosphate 3-kinase catalytic subunit beta isoform (Homo sapiens, UniProt P42338)
# Assay: Inhibition of PI3Kbeta (unknown origin) incubated for 60 mins in the presence of ATP by Kinase-Glo luminescence assay
smiles,measurement,value
Cc1cc(C(C)Nc2ccccc2)c2nc(N3CCOCC3)cc(=O)n2c1 (stereo unspecified),pIC50,7.19

# From ChEMBL document CHEMBL5113448, “Synthesis and biological evaluation of 4H-benzo[e][1,3]oxazin-4-ones analogues of TGX-221 as inhibitors of PI3Kβ” (Bioorg Med Chem, 2022)
